Tests used:
[1] = target: LIF receptor on neonatal rat primary cardiac myocytes (rat) (UniProt O70535); assay: cell-based or functional assay; conditions: scale: score
[2] = target: Mouse LIF receptor on mouse M1 cells (LIF receptor complex with gp130) (mouse) (UniProt P42703); assay: cell-based or functional assay
[3] = target: Mouse LIF receptor on mouse M1 cells (LIF receptor complex with gp130) (mouse) (UniProt P42703); assay: 0.047 nM 125I-mouse CT-1 on M1 cells competed by unlabeled LIF, Scatchard, one-site fit
[4] = target: Mouse LIF receptor on mouse M1 cells (LIF receptor complex with gp130) (mouse) (UniProt P42703); assay: Scatchard analysis of binding to M1 cells, summary over both labeled ligands
[5] = target: Mouse LIF receptor on mouse M1 cells (LIF receptor complex with gp130) (mouse) (UniProt P42703); assay: 0.042 nM 125I-mouse LIF on M1 cells competed by unlabeled LIF, Scatchard, one-site fit

- EC50 of inhibition of 3H-thymidine incorporation in the mouse myeloid leukemia cell line, M1 [2]: 0.048 nM
- sites/cell [3]: 1800 sites/cell
- sites per cell (sites per cell) [4]: 1500
- sites/cell [5]: 1200 sites/cell
Substance: Mouse LIF (leukemia inhibitory factor) (from UniProt P09056 24-203) (ligand)
- Hypertrophy Score of neonatal rat cardiac myocytes at 0.05 nM [1]: 4
- Hypertrophy Score of neonatal rat cardiac myocytes at 0.25 nM [1]: 5.5
- Hypertrophy Score of neonatal rat cardiac myocytes at 2.5 nM [1]: 6

Source: patent US20040006018A1
